Tests used:
[1] = target: Carbonic anhydrase 9 (Homo sapiens, UniProt Q16790); experiment: Potency index, ratio of acetazolamide Ki to test compound Ki for recombinant human carbonic anhydrase-9 catalytic domain
[2] = target: Carbonic anhydrase 2 (Homo sapiens, UniProt P00918); experiment: Potency index, ratio of acetazolamide Ki to test compound Ki for recombinant human carbonic anhydrase-2
In short: (§1)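 Recombinant human CA, made in house, in a stopped-flow CO₂ hydration assay. Conditions: 20 mM Hepes pH 7.5, 20 mM Na₂SO₄, 0.2 mM phenol red read at 557 nm, CO₂ 1.7-17 mM. Enzyme and inhibitor were preincubated 15 min at room temperature. Initial rates were corrected for the uncatalyzed rate. Ki came from nonlinear least squares, mean of three measurements. The ratio uses the acetazolamide Ki.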

Sequences of proteins named here, by UniProt entry; tags and fusion partners are left off. A change or cut given only in a name is not applied to a line headed by its entry.
UniProt P00915: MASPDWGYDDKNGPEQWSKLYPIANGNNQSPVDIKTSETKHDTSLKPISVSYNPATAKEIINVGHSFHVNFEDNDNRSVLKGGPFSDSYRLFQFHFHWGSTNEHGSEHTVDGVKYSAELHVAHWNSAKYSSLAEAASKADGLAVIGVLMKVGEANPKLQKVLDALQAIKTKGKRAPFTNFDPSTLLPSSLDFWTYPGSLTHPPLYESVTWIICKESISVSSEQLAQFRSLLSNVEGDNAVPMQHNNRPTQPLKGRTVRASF
UniProt P22748: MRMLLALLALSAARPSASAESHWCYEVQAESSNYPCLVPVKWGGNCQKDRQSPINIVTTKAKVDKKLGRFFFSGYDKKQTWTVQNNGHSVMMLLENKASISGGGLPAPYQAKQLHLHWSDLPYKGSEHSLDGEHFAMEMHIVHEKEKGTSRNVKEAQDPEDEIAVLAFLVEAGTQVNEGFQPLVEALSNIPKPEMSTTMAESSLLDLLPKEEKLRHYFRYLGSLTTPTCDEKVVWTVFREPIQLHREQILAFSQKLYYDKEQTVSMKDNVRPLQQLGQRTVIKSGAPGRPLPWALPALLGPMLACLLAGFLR

[3] = target: Carbonic anhydrase 1 (Homo sapiens, UniProt P00915); experiment: Potency index, ratio of acetazolamide Ki to test compound Ki for recombinant human carbonic anhydrase-1
In short: as §1

[4] = target: Carbonic anhydrase 4 (Homo sapiens, UniProt P22748); experiment: Potency index, ratio of acetazolamide Ki to test compound Ki for recombinant human carbonic anhydrase-4

Row | SMILES | Ratio Ki [1] | Ratio Ki [2] | Ratio Ki [3] | Ratio Ki [4]
1 | COc1ccc2c(c1)c(CC(=O)NCCCCOc1ccc(S(N)(=O)=O)cc1)c(C)n2C(=O)c1ccc(Cl)cc1 | 3.35 | 1.5 | – | –
2 | COc1ccc2cc(C(C)C(=O)NCCc3ccc(S(N)(=O)=O)cc3)ccc2c1 (stereo not given) | 2 | – | – | –
3 | CC(C(=O)NCCCCOc1ccc(S(N)(=O)=O)cc1)c1cccc(C(=O)c2ccccc2)c1 (racemic) | 3.23 | 1.98 | 12 | –
4 | CC(C)Cc1ccc(C(C)C(=O)NCCCOc2ccc(S(N)(=O)=O)cc2)cc1 (racemic) | 2.5 | – | – | 1.16
5 | CC(C(=O)NCCCOc1ccc(S(N)(=O)=O)cc1)c1cccc(C(=O)c2ccccc2)c1 (racemic) | 2 | – | – | 1.16
